## AlphaSeq binding of Ab-14 light chain variants to a spike HR2 peptide

The measurements come from Li et al. 2023 (doi:10.1038/s41467-023-39022-2) through the FLAb antibody collection.

All variants were tested on one target, the spike HR2 peptide PDVDLGDISGINAS (SARS-CoV-2).

Ab-14 is the parent antibody, in scFv form: VH, then a (GGGGS)3 linker, then VL. The heavy chain is unchanged in all variants.
VH: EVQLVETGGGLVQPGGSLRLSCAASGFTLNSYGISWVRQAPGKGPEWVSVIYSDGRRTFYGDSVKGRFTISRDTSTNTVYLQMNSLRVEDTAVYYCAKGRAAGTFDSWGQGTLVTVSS
VL: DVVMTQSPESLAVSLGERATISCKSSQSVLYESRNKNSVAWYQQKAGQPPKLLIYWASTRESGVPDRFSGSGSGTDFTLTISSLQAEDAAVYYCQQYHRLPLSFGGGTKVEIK

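The starting antibody came from a phage panning campaign against this peptide. The variants were designed computationally from a first round of random CDR variants and then made and measured. Their group label is 14L_GP_HC (GP: Gaussian process model; HC: hill climbing; a sequence that several methods proposed may carry one label only). The scFvs were displayed on barcoded MATa yeast, the peptide on MATalpha yeast. After mating in shaken culture at 30 °C for 16 h, diploids were selected and their barcode pairs sequenced. Scores were corrected for input abundance and mapped to Kd with protein pairs of known affinity run in the same pool. Each pool was mated in six replicate cultures.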

Changes read parent residue, position, new residue, counted from the first residue of the VL shown.
Numbers give log10(Kd / nM), so 0 is 1 nM and 3 is 1 µM. Smaller is tighter.
A pair that was not seen in that replicate is written "ND"; this usually means weak binding, but a binder can also be missed.
The authors' rule: three or more of the six replicates give a measured affinity, fewer mean a poor binder.
Values of this round are not directly comparable with the first-round values of the same sequences.
Three control strains display no target. For all light chain designs, 4% of the pairings with them gave a signal, with a median of 2.64 and one signal in twenty below 1.59, so weak values seen in few replicates may be background. Also given: how often the same scFv was detected with the empty control strains, with their mean in brackets.
Of ten entries with the parent sequence, four were seen in most replicates (averages 0.34 to 2.37), three in one and three in none, so single entries are noisy.

changes	replicates, log10 nM	signal with controls
Q27G+V29Y+W56E	-0.17 -0.31 -0.39 -0.29 -0.42 -0.14	1/18 (2.82)
Q27I+V29M+N35M+W56E	1.43 1.58 1.68 1.70 1.23 1.53	1/18 (2.54)
S25L+S26L+S28Q+V29T+S62E	1.36 1.36 0.74 1.18 1.38 1.21	2/18 (1.79)
Q27P+S28L+V29Y+Y31E+W56E	ND ND ND ND ND ND	0/18
S25V+Q27F+V29Y+Y31L+W56E+S62D	0.25 0.04 0.02 -0.05 0.18 0.02	0/18
Q27E+V29Y+K36T+W56E	0.44 0.35 0.05 0.17 0.11 0.40	0/18
S25F+S33T+N35T+W56N	0.69 0.26 0.05 -0.12 -0.03 0.27	0/18
S25V+S26Y+Q27P+W56Q	-0.28 -0.35 -0.39 -0.52 -0.44 -0.15	2/18 (3.17)
S25V+V29W+W56G+S62N	0.65 0.22 0.36 0.06 0.04 0.79	0/18
L30P+Y31F+W56D	0.26 -0.08 -0.32 -0.20 -0.11 0.22	0/18
S26P+S28G+S38H+W56G	0.26 0.04 0.14 0.12 0.37 0.21	1/18 (2.26)
S25Q+V29F+W56D+S58N	-0.22 -0.54 -0.47 -0.48 -0.64 -0.36	0/18
Q27W+V29Y+R34M+W56N+A57G	ND ND 0.73 1.54 2.27 1.02	0/18
S25V+S26M+S33G+W56H+S62D	0.03 0.00 -0.08 -0.24 -0.19 0.00	6/18 (2.63)
K24H+Q27P+K36G+W56N+S62Q	0.34 0.23 0.32 0.07 0.28 0.33	0/18
S25L+S26L+S33D+W56H+S62D	-0.08 -0.19 -0.06 -0.29 -0.32 -0.11	3/18 (3.70)
S25L+S26R+S28Q+V29T+W56N+S62E	-0.17 0.23 -0.27 -0.16 -0.12 -0.07	1/18 (2.40)
S25F+Q27I+V29Y+R34M+W56N+A57G	0.57 0.61 0.44 0.47 0.49 0.50	0/18
S25E+L30W+Y31T+S33W+W56D	-0.02 -0.21 -0.21 0.00 -0.35 -0.11	1/18 (2.63)
K24H+S25L+Q27G+W56N	0.57 0.67 0.62 0.21 0.93 0.60	0/18
K24L+Q27F+V29Y+R34P+W56E	0.21 0.36 -0.22 0.21 -0.16 -0.01	0/18
S25V+N35D+W56N+Y97M	ND 2.75 4.10 ND ND ND	0/18
Q27I+V29F+Y31E+W56E	-0.21 -0.21 -0.17 -0.04 -0.27 -0.14	3/18 (3.21)
S26A+S38N+W56H+S62D+H98A	-0.21 -0.33 -0.29 -0.27 -0.26 -0.36	2/18 (4.38)
S26Q+L30D+S38N+W56H+S62D	0.26 0.11 -0.02 0.20 0.00 0.35	1/18 (1.93)
S26Q+S28G+V29A+W56G	0.11 -0.19 -0.14 -0.17 -0.17 0.14	0/18
S26G+S28G+W56G+S103C	0.33 0.10 0.17 0.12 0.27 0.35	0/18
S25L+S26Q+V29T+E61L	0.67 1.83 0.39 0.57 0.21 1.36	0/18
K24H+V29E+W56N	0.46 0.62 0.50 0.12 0.48 0.45	0/18
Q27L+V29E+Y31F+W56N	0.43 0.33 0.28 0.22 0.38 0.38	7/18 (3.28)
S25Q+S38A+W56E+R99W	0.54 0.61 0.39 0.59 0.57 0.60	1/18 (2.99)
K24H+S25L+Q27W+S28V+V29W+L30P+W56N	-0.05 -0.07 -0.18 -0.05 -0.23 -0.05	0/18
V29Y+L30T+W56G	0.48 0.19 0.41 0.12 0.00 0.18	1/18 (3.67)
S25L+V29D+N35V+W56G	0.13 0.08 0.01 -0.18 0.01 0.11	0/18
V29Y+R34M+W56N+A57G	0.33 0.39 -0.01 -0.03 0.20 0.24	0/18
S25M+S26P+S28G+W56G+T59V	0.26 0.25 -0.09 0.06 0.19 0.46	2/18 (3.31)
S25V+S26R+V29T+W56R	0.99 0.92 0.90 1.02 1.11 0.89	0/18
S26G+S28G+L30P+W56G+T59Q+E61W	1.37 1.18 0.73 1.07 0.79 0.99	2/18 (2.51)
K24H+S25L+Q27W+S28V+V29W+W56N	0.23 0.29 0.01 -0.08 0.16 0.35	1/18 (2.99)